In US20190365774A1, “COMBINATION THERAPY OF BACE-1 INHIBITOR AND ANTI-N3PGLU ABETA ANTIBODY” (Eli Lilly and Company, priority 2016, published 2019):

B1: Antibody I: anti-N3pGlu Abeta antibody, light chain SEQ ID NO: 12 and heavy chain SEQ ID NO: 11 (antibody)
heavy: QVQLVQSGAEVKKPGSSVKVSCKASGYTFTDYYINWVRQAPGQGLEWMGWINPGSGNTKYNEKFKGRVTITADESTSTAYMELSSLRSEDTAVYYCTREGETVYWGQGTLVTVSSASTKGPSVFPLAPSSKSTSGGTAALGCLVKDYFPEPVTVSWNSGALTSGVHTFPAVLQSSGLYSLSSVVTVPSSSLGTQTYICNVNHKPSNTKVDKKV[sequence of human IgG1 Fc not given]
light: DVVMTQSPLSLPVTLGQPASISCKSSQSLLYSRGKTYLNWFQQRPGQSPRRLIYDVSKLDSGVPDRFSGSGSGTDFTLKISRVEAEDVGVYYCVQGTHYPFTFGQGTKLEIKRTVAAPSVFIFPPSDEQLKSGTASVVCLLNNFYPREAKVQWKVDNALQSGNSQESVTEQDSKDSTYSLSSTLTLSKADYEKHKVYACEVTHQGLSSPVTKSFNRGEC
B2: Antibody II: anti-N3pGlu Abeta antibody, light chain SEQ ID NO: 13 and heavy chain SEQ ID NO: 11 (antibody)
heavy: B1 heavy
light: DIQMTQSPSTLSASVGDRVTITCKSSQSLLYSRGKTYLNWLQQKPGKAPKLLIYAVSKLDSGVPSRFSGSGSGTEFTLTISSLQPDDFATYYCVQGTHYPFTFGQGTKLEIKRTVAAPSVFIFPPSDEQLKSGTASVVCLLNNFYPREAKVQWKVDNALQSGNSQESVTEQDSKDSTYSLSSTLTLSKADYEKHKVYACEVTHQGLSSPVTKSFNRGEC

Tested on: deposited Aβ
Experiment: Ex vivo target engagement, immunohistochemistry on fixed PDAPP brain sections
Assay type: binding
Conditions: brain sections from aged PDAPP mice (25-month old), 20 μg/mL antibody
From the text: Secondary HRP reagents specific for human IgG are employed and the deposited plaques are visualized with DAB-Plus (DAKO). Biotinylated murine 3D6 antibody followed by Step-HRP secondary is used as a positive control.

Molecule | labeling of deposited Aβ in PDAPP hippocampus
B1 | labeled a subset of deposits
B2 | labeled a subset of deposits
